Data as given in EP3928779A1 (Chugai Seiyaku Kabushiki Kaisha, priority 2014, dated 2016).
pIC50: −log10 of the molar value.

Protein sequences, listed by entry. Tags and fused reporters are not part of them.
UniProt O95436, whole entry: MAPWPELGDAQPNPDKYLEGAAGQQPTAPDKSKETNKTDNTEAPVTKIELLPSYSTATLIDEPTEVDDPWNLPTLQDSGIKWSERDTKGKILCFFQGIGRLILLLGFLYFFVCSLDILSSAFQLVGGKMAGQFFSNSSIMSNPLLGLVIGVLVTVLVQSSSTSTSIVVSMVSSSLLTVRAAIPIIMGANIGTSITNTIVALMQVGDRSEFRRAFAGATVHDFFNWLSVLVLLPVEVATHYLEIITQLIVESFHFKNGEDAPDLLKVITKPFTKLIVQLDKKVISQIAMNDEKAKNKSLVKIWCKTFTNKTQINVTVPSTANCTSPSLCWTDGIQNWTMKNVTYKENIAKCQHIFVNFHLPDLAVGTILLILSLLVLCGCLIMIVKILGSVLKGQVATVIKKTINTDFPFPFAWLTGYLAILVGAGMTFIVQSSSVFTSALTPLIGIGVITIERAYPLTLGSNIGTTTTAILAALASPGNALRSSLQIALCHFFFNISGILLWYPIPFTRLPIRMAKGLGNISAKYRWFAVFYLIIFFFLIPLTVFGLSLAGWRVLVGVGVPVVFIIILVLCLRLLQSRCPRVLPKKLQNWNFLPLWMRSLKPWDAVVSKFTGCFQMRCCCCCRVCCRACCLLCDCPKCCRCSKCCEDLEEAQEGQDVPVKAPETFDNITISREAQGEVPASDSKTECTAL

How the values were obtained:
[1] = tested on: rat small-intestinal brush border membrane vesicles; experiment: Inhibitory effect on 33PO4 uptake into rat small-intestinal brush border membrane vesicles (rapid filtration method); type: biochemical; conditions: 33PO4 uptake into rat small-intestinal BBMVs; test compound 1 µM; reacted for 60 seconds
human NaPi-IIb = human NaPi-IIb (Homo sapiens, UniProt O95436); experiment: Inhibitory effect on 33PO4 uptake into human NaPi-IIb-expressing cell (CHO); type: cell-based; conditions: 33PO4 uptake into human NaPi-IIb-expressing CHO cells; compound at 1, 3, 10 or 30 µM

| Compound | pIC50 (human NaPi-IIb) | Rate of uptake inhibition (%) (1 µM) [1] |
| --- | --- | --- |
| C[C@]12CCCN1N(Cc1ccc(F)cc1F)C(=O)C(C(=O)Nc1ccc(C(F)(F)F)cc1-c1cc(C(F)(F)F)ncn1)=C2O | 5.25 | 80 |
| C[C@]12CCCN1N(Cc1cc(F)ccc1F)C(=O)C(C(=O)Nc1ccc(C(F)(F)F)cc1-c1cc(C(F)(F)F)ncn1)=C2O | 5.38 | 79 |
| C[C@]12CCCN1N(Cc1c(F)cc(C#CCCCCOCC(O)CO)cc1F)C(=O)C(C(=O)Nc1ccc(C(F)(F)F)cc1-c1ccc(C(F)(F)F)nc1)=C2O (single isomer, unassigned) | 5.68 | 72 |
| C[C@]12CCCN1N(Cc1ccccc1C#N)C(=O)C(C(=O)Nc1ccc(C(F)(F)F)cc1-c1ccc(C(F)(F)F)nc1)=C2O | – | 71 |
| CC(C)[C@H]1C(O)=C(C(=O)Nc2ccc(C(F)(F)F)cc2-c2cc(C(F)(F)F)ncn2)C(=O)N(Cc2ccc(OCCN3CCOCC3)c(F)c2F)N1C | 4.73 | 53 |

Further lines, with some results ahead:

| pIC50 (human NaPi-IIb) | Compound | Rate of uptake inhibition (%) (1 µM) [1] |
| --- | --- | --- |
| 5.43 | C[C@]12CCCN1N(Cc1cccc(C#N)c1)C(=O)C(C(=O)Nc1ccc(C(F)(F)F)cc1-c1ccc(C(F)(F)F)nc1)=C2O | 82 |
| 5.29 | C[C@]12CCCN1N(Cc1ccccc1)C(=O)C(C(=O)Nc1ccc(C(F)(F)F)cc1-c1ccc(C(F)(F)F)nc1)=C2O | 76 |
| 5.24 | C[C@]12CCCN1N(Cc1ccc(C#N)cc1)C(=O)C(C(=O)Nc1ccc(C(F)(F)F)cc1-c1ccc(C(F)(F)F)nc1)=C2O | 77 |
| 5.82 | C[C@]12CCCN1N(Cc1cc(F)c(F)cc1F)C(=O)C(C(=O)Nc1ccc(C(F)(F)F)cc1-c1ccc(C(F)(F)F)nc1)=C2O | 73 |
